What was measured:
5HT2B = 5HT2B (Homo sapiens, UniProt P41595); assay: biochemical
hA3AR = hA3AR (Homo sapiens, UniProt P0DMS8); conditions: modulator 0.1 μM

Protein sequences, listed by entry. Tags and fused reporters are not part of them.
UniProt P41595, whole entry, species assumed: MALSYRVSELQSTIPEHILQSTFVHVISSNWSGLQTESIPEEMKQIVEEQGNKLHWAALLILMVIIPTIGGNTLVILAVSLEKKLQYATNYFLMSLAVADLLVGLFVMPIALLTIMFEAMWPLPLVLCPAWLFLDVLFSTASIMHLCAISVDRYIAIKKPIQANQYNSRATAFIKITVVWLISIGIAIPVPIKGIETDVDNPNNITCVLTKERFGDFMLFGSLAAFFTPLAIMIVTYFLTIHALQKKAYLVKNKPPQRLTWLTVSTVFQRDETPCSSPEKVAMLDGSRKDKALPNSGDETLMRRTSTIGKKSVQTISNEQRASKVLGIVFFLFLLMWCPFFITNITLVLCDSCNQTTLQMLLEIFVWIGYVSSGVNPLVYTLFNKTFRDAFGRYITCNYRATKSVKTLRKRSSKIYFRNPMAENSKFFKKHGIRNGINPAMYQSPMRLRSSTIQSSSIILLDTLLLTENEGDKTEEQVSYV
UniProt P0DMS8, whole entry: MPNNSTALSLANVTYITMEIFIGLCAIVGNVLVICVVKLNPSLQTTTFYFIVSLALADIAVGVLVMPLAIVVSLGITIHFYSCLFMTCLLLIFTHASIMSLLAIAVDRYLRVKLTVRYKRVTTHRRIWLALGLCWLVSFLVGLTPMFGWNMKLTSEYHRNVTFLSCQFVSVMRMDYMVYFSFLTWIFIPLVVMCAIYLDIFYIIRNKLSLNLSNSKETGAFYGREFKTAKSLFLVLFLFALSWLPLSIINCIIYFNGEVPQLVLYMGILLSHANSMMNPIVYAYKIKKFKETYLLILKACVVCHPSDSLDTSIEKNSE

Ki (5HT2B) [nM]	enhancement of agonist efficacy at 0.1 μM (hA3AR)	Structure (SMILES)
2600		CCCC(CCC)c1nc2c(Nc3ccc(I)cc3)nc3ccccc3c2[nH]1 [Compound 39, 2-(Heptan-4-yl)-N-(4-iodophenyl)-1H-imidazo[4,5-c]quinolin-4-amine]
	significantly enhanced agonist efficacy	COC(=O)/C=C/c1ccc(Nc2nc3ccccc3c3[nH]c(C4CCCCC4)nc23)cc1 [Compound 37, Methyl (E)-3-(4-((2-cyclohexyl-1H-imidazo[4,5-c]quinolin-4-yl)amino)phenyl)acrylate]
